Source: PubChem BioAssay
A selection: hits, their analogues and other compounds. The true share with any hit is near 1.1%.
TrxR1 substrate: is turned over as a substrate by rat TrxR1. O89049. purified TrxR1 substrate turnover, NADPH consumption readout. Potency, µM (titrated, usually from 114 µM), without a hit: at the highest dose activity change, negative = substrate turnover. actives 0.01% (n = 390,000); also: potency is read from the fitted curve at half-maximal effect; % is scaled to controls: 0 for no effect and ±100 for the full control effect; nearly all actives have a fitted effect of over 50% in size
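Rat TrxR1, dispensed at 90 nM, was prereduced with 400 uM NADPH (final) for 5 min at ~22 deg C, then incubated with compound 15 min before 400 uM selenite. A first-read NADPH fluorescence drop versus no-compound background flagged substrates.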
PINK1 expr mod: modulators of PINK1 expression; actives 0.2% (n = 410,000); AID 624263; Potency, µM (doses to about 76.6 µM), without a hit: at the top dose activation (PINK1 increase), actives largely listed as activators; PINK1 immunofluorescence, high-content cytometry, 24 h; active = well fitted activation curve with a large enough effect; inconclusive = small, poorly fitted or top-dose-only effect; cell line not stated here; also: potency is read from the fitted curve at half-maximal effect; % of control where 0% means no effect; nearly all actives have a fitted effect of over 65% in size
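Readout is PINK1 immunofluorescence, quantified alongside mitochondrial, cell and nuclear markers by laser-scanning microplate cytometry. Cells from a stable line were exposed to compound titrations (5 concentrations) for 24 hours, with CCCP controls.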
miR-21 reporter: miR-21 reporter, rising signal; HeLa miR-21 FLuc reporter, luciferase, 48 h; Potency, µM (doses to about 38.3 µM), for inactives: at the highest dose reporter change, positive = more light; 340,000 tested, under 10 active; AID 2288; active = well fitted rising curve with a large enough effect; inconclusive = small, poorly fitted or top-dose-only effect; inactive = no such curve, though single readings can be large or run the other way;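 further: % of control where 0% means no effect; miR-21 action dims this reporter so a rising signal means less miR-21 action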
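HeLa cells stably expressing CMV-driven firefly luciferase with a downstream miR-21 binding sequence, endogenously expressing miR-21, were treated with titrations (up to about 40uM final) for 48 hours at 37 degree Celsius. Luciferase luminescence was read after lysis.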
GALK inhibitor: inhibitors of human galactokinase; P51570; Purified GALK, Kinase-Glo residual ATP luminescence; Potency, µM (titrated, usually from 57.5 µM), inactives show at the highest dose activity change, negative = inhibition, hits mostly inhibitors; actives 0.007% (n = 270,000); AID 1868; also: potency is read from the fitted curve at half-maximal effect; % is scaled to controls: 0 for no effect and ±100 for the full control effect
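Quantitative HTS: GALK 5 nM, ATP 35 uM, galactose 100 uM, 1 h room temperature, then luciferase-based ATP detection.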
TrxR1 inh: blocks rat thioredoxin reductase 1; O89049; recombinant rTrxR1, NADPH fluorescence consumption, selenite substrate; Potency, µM (titrated, usually from 114 µM), for the others: at the top dose activity change, negative = inhibition, most hits filed as inhibitors; actives 1% (n = 390,000); AID 588453; also: potency is read from the fitted curve at half-maximal effect; % is scaled to controls: 0 for no effect and ±100 for the full control effect; nearly all actives have a fitted effect of over 65% in size
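Rat TrxR1 (90 nM in the dispensed reagent) was pre-reduced with 400 uM NADPH for 5 min at room temperature, then incubated with compound for 15 min. After 400 uM selenite was added, NADPH fluorescence (Ex 340/Em 450 nm) was followed for 8 min.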
* = called active by the depositor; ? = inconclusive; · = no result; [ ] = dose if it differs, or a comment. Unless noted, calls follow the shape of the dose curve; as a rule, active = well fitted curve in the direction sought with a large enough effect; inconclusive = small, poorly fitted or top-dose-only effect, or another doubt; inactive = no such curve, though single readings can be large; an effect the other way counts as inactive or inconclusive.

1	O=C(NCc1nnc2n1CCN(Cc1cc(F)cc(F)c1)CC2)c1cccc(F)c1
2	Cc1cc(O)c(C(=O)/C=C/c2cccc([N+](=O)[O-])c2)c(=O)o1
3	COc1cc(/C=C/C(=O)O)ccc1O
4	O=C(/C=C/c1cccc(Cl)c1)c1ccc([N+](=O)[O-])o1
5	COc1ccc(/C=C/C(=O)c2ccc([N+](=O)[O-])o2)cc1OC
6	COc1cc(OC)c(C(=O)C=Cc2ccc(OC)c(OC)c2)c(OC)c1
7	COc1cc(/C=C/C(=O)c2ccc([N+](=O)[O-])o2)ccc1O
8	COc1cccc(Cn2c(=O)n(CC3CCC(C(=O)N4CCCCC4)CC3)c(=O)c3sccc32)c1 (stereo not drawn)

assay / entry	1	2	3	4	5	6	7	8
TrxR1 substrate	·	-2%	-1%	-2%	-15%	-21%	-1%	-6%[57.1 µM]
PINK1 expr mod	4%	-2%	0%	-1%	8%	-2%	2%	-1%
miR-21 reporter	·	-5%	·	·	·	·	·	29%
GALK inhibitor	·	-2%	·	·	·	·	·	·
TrxR1 inh	·	-29%	-8%	1.6µM*	14µM*	?	7.9µM*	2%[57.1 µM]

9	O=C(CNC(=O)c1ccccc1)Sc1ccccc1
10	Cc1ccn2c(c1)nc(=O)c1cc(S(=O)(=O)N3CCCCC3)c(Cl)cc12
11	Cc1c(NS(C)(=O)=O)cccc1-c1nc2ccccc2s1
12	CS(=O)(=O)Nc1ccc(-c2nc3ccccc3s2)cc1
13	CCNc1ccc(Br)cc(C(=O)/C=C/c2ccc3c(c2)OCO3)c1=O
14	CCNc1ccc(Br)cc(C(=O)/C=C/c2ccc(Cl)cc2)c1=O
15	CCNc1ccc(Br)cc(C(=O)/C=C/c2c(Cl)cccc2Cl)c1=O
16	CCOc1ccc(N2CC(NC(=O)CCc3ccccc3)CC2=O)cc1 (stereo not drawn)

assay / entry	9	10	11	12	13	14	15	16
TrxR1 substrate	4%	1%	-7%	582%	-5%	-18%	-14%	0%[57.1 µM]
PINK1 expr mod	6%	2%	0%	1%	0%	12%	2%	1%
miR-21 reporter	·	-3%	0%	1%	-8%	1%	-10%	-2%
GALK inhibitor	·	·	·	·	-1%	·	-4%	·
TrxR1 inh	13µM*	9%	-4%	79µM*	7.9µM*	35µM*	?	16%[57.1 µM]

17	Cc1[nH]c(SCC(=O)Nc2cc(C(N)=O)cc(C(N)=O)c2)nc1Cc1ccccc1
18	Cc1cc(NC(=O)CSc2nc(Cc3ccc(O)cc3)c(C)[nH]2)no1
19	Cc1ccc(NC(=O)CSc2n[nH]c(-c3ccc(F)cc3)n2)cc1F
20	COc1ccc(-c2cc(C(=O)NC(C)c3ccccc3)c3cc(C(C)C)ccc3n2)cc1 (stereo not drawn)
21	Nc1c(S(=O)(=O)c2ccccc2)c2nc3ccccc3nc2n1Cc1ccco1
22	Cc1ccc(S(=O)(=O)c2c(N)n(Cc3ccco3)c3nc4ccccc4nc23)cc1C
23	COc1ccc(C2C=CC(=O)CC2)c(OC)c1 (stereo not drawn)
24	CC1(C)CC(=O)C(C(C2=C(O)CC(C)(C)CC2=O)c2cccc(O)c2)C(=O)C1 (stereo not drawn)

assay / entry	17	18	19	20	21	22	23	24
TrxR1 substrate	7%	6%[57.1 µM]	2%[57.1 µM]	15%[57.1 µM]	209%	71%	·	2%[57.1 µM]
PINK1 expr mod	2%	1%	0%	-1%	0%[38.3 µM]	-5%[38.3 µM]	0%	13%[38.3 µM]
miR-21 reporter	·	-1%	7%	-1%	22%	9%	·	-3%
GALK inhibitor	·	7%	·	·	-3%	-1%	·	0%
TrxR1 inh	?	16µM*	11%[57.1 µM]	24%[57.1 µM]	?	11µM*	·	-30%[57.1 µM]

25	CC1(C)CC(=O)C(C(C2=C(O)CC(C)(C)CC2=O)c2cccs2)C(=O)C1 (stereo not drawn)
26	COC(=O)c1ccccc1NC(=O)c1ccc2c(c1)OCCO2
27	Cc1ccccc1C(=O)NC(=S)Nc1ccccc1C(=O)O
28	NC(=O)c1ccccc1NC(=S)NC(=O)c1ccc(Br)o1
29	COC(=O)c1ccccc1NC(=S)NC(=O)c1ccc2c(c1)OCO2
30	COC(=O)c1ccccc1NC(=S)NC(=O)c1ccccc1C
31	O=C(NC(=S)Nc1ccccc1)c1ccc(Br)o1
32	COC(=O)c1ccccc1NC(=S)NC(=O)C1CCCCC1

assay / entry	25	26	27	28	29	30	31	32
TrxR1 substrate	0%	-10%	1%[57.1 µM]	-9%	2%	6%	-1%	-3%
PINK1 expr mod	4%	-1%	-1%	0%	?	-6%[38.3 µM]	5%	-1%
miR-21 reporter	-4%	-14%	-28%	-43%	-9%	-8%	-40%	-5%
GALK inhibitor	0%	0%	6%	0%	-5%	-2%	0%	0%
TrxR1 inh	6.3µM*	-8%	2%[57.1 µM]	25µM*	8.9µM*	11µM*	-15%	16µM*

33	Clc1ccc(/C=C/c2ccnc3ccccc23)c(Cl)c1
34	CN1C(C(=O)NC(C)(C)C)=CC(c2ccc3c(c2)OCO3)=NS1(=O)=O
35	O=C(NCC1Cc2cccc(-c3ncccn3)c2O1)C1CCCO1 (stereo not drawn)
36	Cc1ccc(C(=O)NNC(=S)NC(=O)COc2ccccc2)cc1
37	COC(=O)c1ccccc1NC(=S)NC(=O)c1ccc(C)cc1
38	CC(NC(=O)Cn1ccc2cc(S(=O)(=O)N3CCCCCC3)ccc21)c1ccccc1 (stereo not drawn)
39	O=C(NCCO)C(=O)Nc1cc2c3c(c1)CC(=O)N3CCC2
40	O=C(CCl)c1cc2c3c(c1)CC(=O)N3CCC2

assay / entry	33	34	35	36	37	38	39	40
TrxR1 substrate	-8%	-2%	·	6%	-9%	-1%	-8%	-11%
PINK1 expr mod	·	0%	0%	·	3%	0%	-1%	-1%
miR-21 reporter	·	-4%	·	-21%	-21%	19%	-2%	24%
GALK inhibitor	·	·	·	-2%	-2%	·	-2%	15%
TrxR1 inh	?	3%	·	40µM*	40µM*	23%	-1%	89µM*

41	CCn1c(=NC(=O)CCS(=O)(=O)c2ccccc2)sc2cccc(OC)c21
42	COCCn1c(=NC(=O)CCS(=O)(=O)c2ccccc2)sc2cc(C)ccc21
43	COC(=O)Cn1c(=NC(=O)CCS(=O)(=O)c2ccccc2)sc2c(OC)ccc(OC)c21
44	Cc1cccc2c(C(O)c3cn(C)c4ccccc34)c[nH]c12 (stereo not drawn)
45	Cc1ccc(OCC(=O)NCC(c2ccc(Cl)cc2)N2CCCCC2)cc1 (stereo not drawn)
46	Fc1ccc(N2C(=S)SC(=Nc3ccccc3)C2=Nc2ccccc2)cc1
47	N#CC(C#N)=C1SC(=Nc2ccccc2)C(=Nc2ccccc2)N1c1ccccc1
48	CC(=O)N1N=C(c2ccco2)CC1c1cccs1 (stereo not drawn)

assay / entry	41	42	43	44	45	46	47	48
TrxR1 substrate	9%	-1%	-2%	-2%	-8%	-15%	2%[11.4 µM]	5%
PINK1 expr mod	1%	2%	4%	·	5%	3%	32µM*	·
miR-21 reporter	5%	0%	0%	·	11%	·	·	-12%
GALK inhibitor	-2%	-2%	5%	·	·	·	·	1%
TrxR1 inh	13%	40µM*	28µM*	-17%	6%	-19%	15%[11.4 µM]	?

49	O=C(CCl)N1N=C(c2ccco2)CC1c1cccs1 (stereo not drawn)
50	Cc1ccc(C2=NN(C(=O)CCl)C(c3cccs3)C2)o1 (stereo not drawn)
51	CC(C)OCCCNC(=O)CCCn1c(SCC(N)=O)nc2c(sc3ccccc32)c1=O
52	Cc1nn2c(-c3ccco3)nnc2c2ccccc12

assay / entry	49	50	51	52
TrxR1 substrate	0%	0%[57.1 µM]	0%	-9%
PINK1 expr mod	-3%	1%	0%	·
miR-21 reporter	?	?	0%	-17%
GALK inhibitor	0%	1%	·	-3%
TrxR1 inh	2µM*	10µM*	12%	79µM*
